Source: patent US8633196B2, “Benzenesulfonamide compounds, method for synthesizing same, and use thereof in medicine as well as in cosmetics” (Galderma Research & Development, priority 2009, dated 2014)
Like-named read-outs stand apart in the source and are kept apart here.

Chains of the proteins cited; added tags and fusions are not shown. Residues count along the entry.
UniProt P78536, 215-824 limits assumed: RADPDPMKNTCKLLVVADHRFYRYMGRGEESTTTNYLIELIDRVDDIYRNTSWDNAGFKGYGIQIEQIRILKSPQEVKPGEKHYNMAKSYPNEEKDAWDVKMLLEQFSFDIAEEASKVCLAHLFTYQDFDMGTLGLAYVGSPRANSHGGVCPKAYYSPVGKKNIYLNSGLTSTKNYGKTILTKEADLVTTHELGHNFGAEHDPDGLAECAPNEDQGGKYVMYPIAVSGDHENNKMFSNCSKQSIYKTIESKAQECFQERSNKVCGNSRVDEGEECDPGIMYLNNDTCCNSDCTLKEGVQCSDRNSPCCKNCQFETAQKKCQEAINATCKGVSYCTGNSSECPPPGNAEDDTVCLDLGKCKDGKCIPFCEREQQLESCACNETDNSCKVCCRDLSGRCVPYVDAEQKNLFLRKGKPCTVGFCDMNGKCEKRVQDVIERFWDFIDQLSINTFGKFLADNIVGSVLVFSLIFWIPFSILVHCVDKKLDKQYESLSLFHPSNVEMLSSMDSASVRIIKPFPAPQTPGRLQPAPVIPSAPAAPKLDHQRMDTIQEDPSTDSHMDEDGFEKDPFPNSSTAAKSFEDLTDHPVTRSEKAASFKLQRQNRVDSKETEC

Molecular target: TACE enzyme (Homo sapiens (Human), UniProt P78536)
Test: Enzymatic assay for TACE inhibition (fluorescent substrate)
Type: biochemical

IC50 (enzymatic assay, substrate 40 μM, read-out: IC50-TACE) [nM]	IC50 (TACE column of selectivity table, read-out: IC50 (nM) TACE) [nM]	SMILES
47		Cc1cc(COc2ccc(S(=O)(=O)NC[C@@H](C(=O)NO)N3CCN(C(=O)OCc4ccccc4)CC3)cc2)c2ccccc2n1 [Example 10, Benzyl 4-{(S)-1-hydroxycarbamoyl-2-[4-(2-methylquinolin-4-ylmethoxy)benzenesulfonylamino]ethyl}piperazine-1-carboxylate]
	140	Cc1cc(COc2ccc(S(=O)(=O)NC[C@@H](C(=O)NO)N3CCN(Cc4ccc(C(F)(F)F)cc4)CC3)cc2)c2ccccc2n1 [Example 20, (S)-N-Hydroxy-3-[4-(2-methylquinolin-4-ylmethoxy)benzenesulfonylamino]-2-[4-(4-trifluoromethylbenzyl)piperazin-1-yl]propionamide]
